Test results taken from US7524487B2, “Compositions and methods for modulating interleukin-10” (University of Maryland, priority 2005, dated 2009).

System: bone marrow derived macrophages (BMMφ)
Test: Cytokine ELISA on supernatants of stimulated bone marrow derived macrophages (LPS ± E-IgG)
Conditions: macrophages pretreated with 100 uM okadaic acid for 1 hour, then LPS plus or minus E-IgG

## C=C1[C@@H](O)[C@@H]2O[C@]3(CC[C@H](/C=C/[C@@H](C)[C@@H]4CC(C)=C[C@@]5(O[C@H](C[C@@](C)(O)C(=O)O)CC[C@H]5O)O4)O3)CC[C@H]2O[C@@H]1[C@@H](O)C[C@H](C)[C@H]1O[C@@]2(CCCCO2)CC[C@H]1C [Okadaic Acid]
  IL-10 production in stimulated BMMφ after phosphatase inhibition: dramatically increases
